Target: hATX (Homo sapiens, UniProt Q13822)
Conditions: LPC(18:1) substrate; result in words

**Q.** For `C[C@H](CCC(=O)O)[C@H]1CC[C@H]2[C@@H]3[C@@H](O)C[C@@H]4C[C@H](O)CC[C@]4(C)[C@H]3CC[C@]12C` [UDCA, Ursodeoxycholic acid], which “effect on ATX-mediated LPC hydrolysis” value is on record?
**A.** did not significantly change potency

Source: paper PMC4834639, “Steroid binding to Autotaxin links bile salts and lysophosphatidic acid signalling” (Nature Communications, 2016)
